Test results as given in patent US20190359609A1, “BICYCLIC OGA INHIBITOR COMPOUNDS” (Janssen Pharmaceutica NV, priority 2016, published 2019).

Protein sequences, listed by entry. Tags and fused reporters are not part of them.
UniProt O60502, whole entry: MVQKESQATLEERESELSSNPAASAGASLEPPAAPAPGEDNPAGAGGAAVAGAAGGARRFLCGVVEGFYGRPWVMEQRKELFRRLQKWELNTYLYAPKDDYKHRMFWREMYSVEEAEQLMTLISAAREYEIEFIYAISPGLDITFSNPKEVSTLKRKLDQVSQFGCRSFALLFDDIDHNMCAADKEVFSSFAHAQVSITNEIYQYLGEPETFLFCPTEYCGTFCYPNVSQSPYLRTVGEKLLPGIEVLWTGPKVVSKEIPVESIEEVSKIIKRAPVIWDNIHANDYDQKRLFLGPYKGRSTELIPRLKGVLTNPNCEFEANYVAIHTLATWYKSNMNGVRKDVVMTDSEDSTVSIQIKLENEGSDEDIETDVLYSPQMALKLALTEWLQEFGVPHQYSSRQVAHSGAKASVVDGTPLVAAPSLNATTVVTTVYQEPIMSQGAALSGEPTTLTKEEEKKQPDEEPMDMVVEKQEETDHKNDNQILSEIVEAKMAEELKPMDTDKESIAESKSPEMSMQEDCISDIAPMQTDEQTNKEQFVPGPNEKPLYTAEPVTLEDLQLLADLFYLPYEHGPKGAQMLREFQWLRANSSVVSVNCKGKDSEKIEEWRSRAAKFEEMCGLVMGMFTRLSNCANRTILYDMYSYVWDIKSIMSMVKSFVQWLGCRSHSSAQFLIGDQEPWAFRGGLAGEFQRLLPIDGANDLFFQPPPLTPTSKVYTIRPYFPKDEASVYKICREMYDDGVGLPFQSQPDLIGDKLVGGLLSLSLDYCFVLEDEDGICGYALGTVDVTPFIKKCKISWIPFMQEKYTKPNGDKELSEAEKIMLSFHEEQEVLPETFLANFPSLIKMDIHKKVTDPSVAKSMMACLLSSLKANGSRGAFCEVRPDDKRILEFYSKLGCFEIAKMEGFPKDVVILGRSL

Experiments:
[1] = target: recombinant human Meningioma Expressed Antigen 5 (MGEA5), also referred to as O-GlcNAcase (OGA) (Homo sapiens, UniProt O60502); assay: OGA biochemical assay: inhibition of FM-GlcNAc hydrolysis, fluorescence (protocol A 10 nM OGA, 1 h; protocol B 2 nM OGA, 6 h)
Text: The assay is based on the inhibition of the hydrolysis of fluorescein mono-B-D-N-Acetyl-Glucosamine (FM-GlcNAc) (Mariappa et al. 2015, Biochem J 470:255) by the recombinant human Meningioma Expressed Antigen 5 (MGEA5), also referred to as 0-GlcNAcase (OGA). The hydrolysis FM-GlcNAc (Marker Gene technologies, cat # M1485) results in the formation of β-D-N-glucosamineacetate and fluorescein. The fluorescence of the latter can be measured at excitation wavelength 485 nm and emission wavelength 538 nm. An increase in enzyme activity results in an increase in fluorescence signal. Full length OGA enzyme was purchased at OriGene (cat # TP322411). The enzyme was stored in 25 mM Tris.HCl, pH 7.3, 100 mM glycine, 10% glycerol at −20° C. Thiamet G and GlcNAcStatin were tested as reference compounds (Yuzwa et al. 2008 Nature Chemical Biology 4:483; Yuzwa et al. 2012 Nature Chemical Biology 8:393). The assay was performed in 200 mM Citrate/phosphate buffer supplemented with 0.005% Tween-20. 35.6 g Na2HPO4 2 H2O (Sigma, # C0759) were dissolved in 1 L water to obtain a 200 mM solution. 19.2 g citric acid (Merck, #1.06580) was dissolved in 1 L water to obtain a 100 mM solution. pH of the sodiumphosphate solution was adjusted with the citric acid solution to 7.2. The buffer to stop the reaction consists of a 500 mM Carbonate buffer, pH 11.0. 734 mg FM-GlcNAc were dissolved in 5.48 mL DMSO to obtain a 250 mM solution and was stored at −20° C. OGA was used at a 10 nM (protocol A) or 2 nM (protocol B) concentration and FM-GlcNAc at a 100 uM final concentration. Dilutions were prepared in assay buffer.
50 nl of a compound dissolved in DMSO was dispensed on Black Proxiplate™ 384 Plus Assay plates (Perkin Elmer, #6008269) and 3 μl fl-OGA enzyme mix added subsequently. Plates were pre-incubated for 60 min at room temperature and then 2 μl FM-GlcNAc substrate mix added. […] Plates were briefly centrifuged for 1 min at 1000 rpm and incubate at room temperature for 1 h (10 nM OGA, protocol A) or 6 h (2 nM OGA, protocol B). To stop the reaction 5 μl STOP buffer were added and plates centrifuge again 1 min at 1000 rpm. Fluorescence was quantified in the Thermo Scientific Fluoroskan Ascent or the PerkinElmer EnVision with excitation wavelength 485 nm and emission wavelength 538 nm.
For analysis a best-fit curve is fitted by a minimum sum of squares method. From this an IC50 value and Hill coefficient was obtained. High control (no inhibitor) and low control (saturating concentrations of standard inhibitor) were used to define the minimum and maximum values.

OGA = OGA (Homo sapiens, UniProt O60502); assay: OGA cellular assay: ICC detection of O-GlcNAcylated proteins in HEK293 cells inducible for P301L mutant human Tau; settings: 6 hours incubation
Procedure: HEK293 cells inducible for P301L mutant human Tau (isoform 2N4R) were established at Janssen. Thiamet-G was used for both plate validation (high control) and as reference compound (reference EC50 assay validation). OGA inhibition is evaluated through the immunocytochemical (ICC) detection of O-GlcNAcylated proteins by the use of a monoclonal antibody (CTD110.6; Cell Signaling, #9875) detecting O-GlcNAcylated residues as previously described (Dorfmueller et al. 2010 Chemistry & biology, 17:1250).
Inhibition of OGA will result in an increase of 0-GlcNAcylated protein levels resulting in an increased signal in the experiment. Cell nuclei are stained with Hoechst to give a cell culture quality control and a rough estimate of immediate compounds toxicity, if any. ICC pictures are imaged with a Perkin Elmer Opera Phenix plate microscope and quantified with the provided software Perkin Elmer Harmony 4.1.
Cells were propagated in DMEM high Glucose (Sigma, #D5796) following standard procedures. 2 days before the cell assay cells are split, counted and seeded in Poly-D-Lysine (PDL) coated 96-wells (Greiner, #655946) plate at a cell density of 12,000 cells per cm^2 (4,000 cells per well) in 100 μl of Assay Medium (Low Glucose medium is used to reduce basal levels of GlcNAcylation) (Park et al. 2014 The Journal of biological chemistry 289:13519). At the day of compound test medium from assay plates was removed and replenished with 90 μl of fresh Assay Medium. 10 μl of compounds at a 10fold final concentration were added to the wells. Plates were centrifuged shortly before incubation in the cell incubator for 6 hours. DMSO concentration was set to 0.2%. Medium is discarded by applying vacuum. For staining of cells medium was removed and cells washed once with 100 μl D-PBS (Sigma, #D8537). From next step onwards unless other stated assay volume was always 50 μl and incubation was performed without agitation and at room temperature. Cells were fixed in 50 μl of a 4% paraformaldehyde (PFA, Alpha aesar, #043368) PBS solution for 15 minutes at room temperature. […] Before analysis samples were washed 2 times manually for 5 minutes in ICC base buffer.
Imaging is performed using Perkin Elmer Phenix Opera using a water 20× objective and recording 9 fields per well. Intensity readout at 488 nm is used as a measure of O-GlcNAcylation level of total proteins in wells. To assess potential toxicity of compounds nuclei were counted using the Hoechst staining. IC50-values are calculated using parametric non-linear regression model fitting. As a maximum inhibition Thiamet G at a 200 uM concentration is present on each plate. In addition, a concentration response of Thiamet G is calculated on each plate.

[2] = Enzymatic protocol A (10 nM OGA, 1 h)
[3] = Enzymatic protocol B (2 nM OGA, 6 h)

Structure (SMILES) | Enzymatic Emax (%) [1, 2] [%] | Enzymatic hOGA; pIC50 [1, 2] | Enzymatic Emax (%) [1, 3] [%] | Enzymatic hOGA; pIC50 [1, 3] | Cellular Emax (%) (OGA) | Cellular hOGA; pEC50 (OGA)
CC(=O)Nc1ncc(CN2CCCC(c3cc4ncccc4n3C)C2)s1 (racemic) | 101.1 | 7.95 | 101.2 | 8.09 | 123.8 | 7.58
CC(=O)Nc1ncc(CN2CC[C@@H](C)[C@@H](c3cc4ncccc4[nH]3)C2)s1 (relative stereo) | 101.0 | 6.65 | 102.13 | 7.03 | 111.9 | 6.62
CC(=O)Nc1ncc(CN2CCCC(c3cc4ncccc4n3C)C2)s1 (single isomer, unassigned) [16] |  |  | 99.7 | 8.15 | 90.5 | 8.06
CC(=O)Nc1ncc(CN2CCCC(c3cc4ncccc4n3C)C2)s1 (single isomer, unassigned) [17] |  |  | 92.8 | 6.02 | 61.9 | 5.14
